pIC50: −log10 of the molar value.

The target of the test is Muscarinic acetylcholine receptor M4 (Rattus norvegicus) (UniProt P08485). The experiment in a line: rat M4 receptor inhibition concentration-response – cell-based, antagonist mode, counter-screen for M1 allosteric modulator project, dose response (AID 860). The conditions noted are these: rat M4-expressing cells, calcium fluorescence, antagonist mode at EC80 agonist. (In general: Counterscreens check selectivity or assay interference.)
For the compound `O=C(COc1ccccc1)OC1CN2CCC1CC2` (centres undefined), the pIC50 was 4.93.

On to `O=C(OC1CN2CCC1CC2)c1cccc(Cl)c1` (centres undefined), for which the pIC50 was 4.95.

Turning to `CCN(CC)CC(O)COC(=O)C(O)(c1ccccc1)C1CCCCC1` (centres undefined), the pIC50 was 7.27.

With `O=C(OC1CN2CCC1CC2)C12CC3CC(CC(C3)C1)C2` (centres undefined), the pIC50 was 6.44.

A word on the pIC50: it is the IC50 on a negative log10 scale, so that one unit is a factor of ten.

For the origin of these results see PubChem BioAssay AID860 (Vanderbilt High Throughput Screening Facility, 2007).
